Read-out in experiment [1]: NAD(P)H dehydrogenase [quinone] 1 (NQO1), NQO1 (gene 1728)
The experiment in a line: LTEA_HepaRG_NQO1: Life Technologies and Expression Analysis (LTEA) Assay for NAD(P)H dehydrogenase [quinone] 1 (NQO1) using HepaRG (AID 2283526). The following applies: actives raise or lower the signal; mRNA level, 48 h. The method, boiled down: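 HepaRG, 48 h post-plating → serum-free induction medium → test chemical 48 h (duplicate, 100 uM top, half-log x8, 0.5% DMSO) → RNA isolation → qRT-PCR, ACTB/GAPDH/POLR2A normalization; bidirectional curve fit vs DMSO baseline.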

Amino acid sequences for entries named in this document (tags omitted).
UniProt Q16236, whole entry: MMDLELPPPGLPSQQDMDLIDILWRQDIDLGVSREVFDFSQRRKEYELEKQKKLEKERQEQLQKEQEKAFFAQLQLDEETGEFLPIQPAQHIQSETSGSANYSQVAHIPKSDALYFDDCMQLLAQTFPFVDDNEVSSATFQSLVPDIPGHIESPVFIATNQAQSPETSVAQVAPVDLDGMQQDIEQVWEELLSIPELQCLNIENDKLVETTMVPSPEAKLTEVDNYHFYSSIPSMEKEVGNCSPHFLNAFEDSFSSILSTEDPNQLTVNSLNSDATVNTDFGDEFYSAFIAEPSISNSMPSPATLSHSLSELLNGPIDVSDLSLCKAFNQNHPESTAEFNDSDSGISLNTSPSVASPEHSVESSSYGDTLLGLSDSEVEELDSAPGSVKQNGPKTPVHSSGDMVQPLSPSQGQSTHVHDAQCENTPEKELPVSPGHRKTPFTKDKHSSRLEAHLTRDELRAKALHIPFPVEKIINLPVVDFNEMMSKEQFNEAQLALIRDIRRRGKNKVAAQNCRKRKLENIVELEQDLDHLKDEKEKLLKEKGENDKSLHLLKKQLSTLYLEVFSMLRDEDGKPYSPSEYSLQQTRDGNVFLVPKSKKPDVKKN
UniProt P40763, whole entry: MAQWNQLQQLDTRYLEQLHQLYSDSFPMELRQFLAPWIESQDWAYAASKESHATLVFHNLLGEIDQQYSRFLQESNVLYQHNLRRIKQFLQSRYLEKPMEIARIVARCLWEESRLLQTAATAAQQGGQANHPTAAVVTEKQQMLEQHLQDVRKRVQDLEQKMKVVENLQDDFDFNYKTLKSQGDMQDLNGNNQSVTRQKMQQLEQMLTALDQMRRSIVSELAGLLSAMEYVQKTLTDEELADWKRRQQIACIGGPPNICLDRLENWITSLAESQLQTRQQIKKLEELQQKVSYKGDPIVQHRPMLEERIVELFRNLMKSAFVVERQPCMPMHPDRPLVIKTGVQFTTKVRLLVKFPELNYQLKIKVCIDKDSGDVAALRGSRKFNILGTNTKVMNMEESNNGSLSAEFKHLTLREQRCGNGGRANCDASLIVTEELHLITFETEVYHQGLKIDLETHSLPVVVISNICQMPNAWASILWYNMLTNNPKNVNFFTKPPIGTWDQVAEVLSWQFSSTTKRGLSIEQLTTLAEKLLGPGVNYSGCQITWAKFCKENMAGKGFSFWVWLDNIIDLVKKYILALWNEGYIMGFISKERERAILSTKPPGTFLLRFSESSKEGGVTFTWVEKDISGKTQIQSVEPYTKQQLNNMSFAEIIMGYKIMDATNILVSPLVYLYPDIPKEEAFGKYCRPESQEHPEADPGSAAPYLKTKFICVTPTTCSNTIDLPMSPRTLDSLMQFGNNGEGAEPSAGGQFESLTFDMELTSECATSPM
UniProt P04637, whole entry: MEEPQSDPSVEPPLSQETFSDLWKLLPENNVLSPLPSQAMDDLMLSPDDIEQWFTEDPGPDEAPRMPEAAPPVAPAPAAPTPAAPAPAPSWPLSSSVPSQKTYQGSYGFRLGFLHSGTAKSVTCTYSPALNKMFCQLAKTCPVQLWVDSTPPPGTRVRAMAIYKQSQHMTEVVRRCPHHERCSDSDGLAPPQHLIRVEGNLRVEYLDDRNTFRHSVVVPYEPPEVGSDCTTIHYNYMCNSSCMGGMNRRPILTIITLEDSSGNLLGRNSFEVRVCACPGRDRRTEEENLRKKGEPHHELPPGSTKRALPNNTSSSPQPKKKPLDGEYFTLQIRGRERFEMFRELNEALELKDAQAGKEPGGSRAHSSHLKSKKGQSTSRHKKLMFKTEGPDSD

Read-out in experiment [2]: Nuclear factor erythroid 2-related factor 2 (Homo sapiens) (UniProt Q16236)
Description: LTEA_HepaRG_NFE2L2: Life Technologies and Expression Analysis (LTEA) Assay for Nuclear factor erythroid 2-related factor 2 (NFE2L2) Transcription Factor using HepaRG (AID 2283527).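 Note: TaqMan qRT-PCR transcript level normalised to ACTB GAPDH and POLR2A housekeeping genes.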 The note with it: actives raise or lower the signal; mRNA level, 48 h. The method, boiled down: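 Differentiated human HepaRG cells in serum-free induction medium were exposed for 48 h to eight concentrations (top 100 uM, half-log dilutions, 0.5% DMSO), in duplicate. NFE2L2 mRNA was quantified by TaqMan qRT-PCR, normalized to ACTB, GAPDH and POLR2A, with bidirectional fitting versus DMSO.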

Read-out in experiment [3]: succinate dehydrogenase complex iron sulfur subunit B (SDHB), SDHB (gene 6390)
The experiment in a line: LTEA_HepaRG_SDHB: Life Technologies and Expression Analysis (LTEA) Assay for succinate dehydrogenase complex iron sulfur subunit B (SDHB) using HepaRG (AID 2283528). The note with it: actives raise or lower the signal; mRNA level, 48 h. The method, boiled down: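 HepaRG, 48 h exposure, 8-pt half-log series from 100 uM in 0.5% DMSO, duplicates. Readout: SDHB mRNA by Fluidigm qRT-PCR vs housekeeping genes; bidirectional fit relative to DMSO.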

Read-out in experiment [4]: Signal transducer and activator of transcription 3 (Homo sapiens) (UniProt P40763)
The experiment in a line: LTEA_HepaRG_STAT3: Life Technologies and Expression Analysis (LTEA) Assay for Signal transducer and activator of transcription (STAT3) using HepaRG (AID 2283529). The note with it: actives raise or lower the signal; mRNA level, 48 h. The method, boiled down:
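Differentiated human HepaRG cells in serum-free induction medium were exposed in duplicate for 48 h to eight half-log concentrations up to 100 uM in 0.5% DMSO. STAT3 mRNA was quantified by TaqMan qRT-PCR, normalized to ACTB, GAPDH and POLR2A, and fitted bidirectionally against DMSO.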

Read-out in experiment [5]: solute carrier (SLCO1B1), SLCO1B1 (gene 10599)
The experiment in a line: LTEA_HepaRG_SLCO1B1: Life Technologies and Expression Analysis (LTEA) Assay for solute carrier (SLCO1B1) using HepaRG (AID 2283530). The following applies: actives raise or lower the signal; mRNA level, 48 h. An outline of the steps:
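HepaRG, serum-free induction medium, 48 h dosing, 8-pt half-log from 100 uM, 0.5% DMSO vehicle, duplicates. Readout: SLCO1B1 mRNA, qRT-PCR, ACTB/GAPDH/POLR2A normalization; up or down fit vs DMSO.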

Read-out in experiment [6]: sulfotransferase 2A1 (SULT2A1), SULT2A1 (gene 6822)
Description: LTEA_HepaRG_SULT2A1: Life Technologies and Expression Analysis (LTEA) Assay for sulfotransferase 2A1 (SULT2A1) using HepaRG (AID 2283531). The note with it: actives raise or lower the signal; mRNA level, 48 h. The method, boiled down: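 Transcript levels of SULT2A1, quantified by qRT-PCR and normalized to three housekeeping genes, serve as the readout. Human HepaRG cultures receive test chemicals for 48 h at up to 100 uM in half-log steps, with 0.5% DMSO vehicle.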

Read-out in experiment [7]: Transforming Growth Factor (TGFA), TGFA (gene 7039)
Description: LTEA_HepaRG_TGFA: Life Technologies and Expression Analysis (LTEA) Assay for Transforming Growth Factor (TGFA) using HepaRG (AID 2283532). The following applies: actives raise or lower the signal; mRNA level, 48 h. An outline of the steps:
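Differentiated human HepaRG cells, plated 48 h then switched to serum-free induction medium, were exposed in duplicate for 48 h to 8-point half-log series from 100 uM in 0.5% DMSO. TGFA mRNA measured by qRT-PCR, normalized to ACTB/GAPDH/POLR2A, bidirectional fit versus DMSO.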

Read-out in experiment [8]: Transforming Growth Factor (TGFB1), TGFB1 (gene 7040)
Description: LTEA_HepaRG_TGFB1: Life Technologies and Expression Analysis (LTEA) Assay for Transforming Growth Factor (TGFB1) Transporter using HepaRG (AID 2283533). The following applies: actives raise or lower the signal; mRNA level, 48 h. An outline of the steps:
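HepaRG, 48 h post-plating, switched to serum-free induction medium; chemicals 100 uM top, half-log, 8 pts, 0.5% DMSO, dup; 48 h exposure; RNA → Fluidigm TaqMan qRT-PCR; norm ACTB/GAPDH/POLR2A; bidirectional fit vs DMSO.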

Read-out in a further experiment: TIMP1, TIMP1 (gene 7076)
Description: LTEA_HepaRG_TIMP1: Life Technologies and Expression Analysis (LTEA) Assay for TIMP1 using HepaRG (AID 2283534). The following applies: actives raise or lower the signal; mRNA level, 48 h. The method, boiled down: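 Readout is TIMP1 mRNA level measured by qRT-PCR and normalized to three housekeeping genes. Human HepaRG cells were treated for 48 h in duplicate at eight concentrations up to 100 uM (0.5% DMSO); gain or loss fitted against DMSO.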

Read-out in experiment [9]: Tumor necrosis factor receptor 1 (TNFRSF1A), TNFRSF1A (gene 7132)
Description: LTEA_HepaRG_TNFRSF1A: Life Technologies and Expression Analysis (LTEA) Assay for Tumor necrosis factor receptor 1 (TNFRSF1A) using HepaRG (AID 2283535). The note with it: actives raise or lower the signal; mRNA level, 48 h. An outline of the steps: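 Read-out is TNFRSF1A transcript level by TaqMan qRT-PCR, normalized to three housekeeping genes, scored as gain or loss of signal versus 0.5% DMSO. Human HepaRG cells received test chemicals for 48 h at up to 100 uM (half-log series).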

Read-out in experiment [10]: Thyroid Hormone Responsive (THRSP), THRSP (gene 7069)
Description: LTEA_HepaRG_THRSP: Life Technologies and Expression Analysis (LTEA) Assay for Thyroid Hormone Responsive (THRSP) using HepaRG (AID 2283536). The following applies: actives raise or lower the signal; mRNA level, 48 h. The method, boiled down:
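Differentiated human HepaRG cells were exposed in duplicate for 48 h in serum-free induction medium to eight concentrations (top 100 uM, half-log steps, 0.5% DMSO). Expression was quantified by TaqMan qRT-PCR, normalized to ACTB, GAPDH and POLR2A, with bidirectional fitting against DMSO.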

Read-out in experiment [11]: Cellular tumor antigen p53 (Homo sapiens) (UniProt P04637)
The experiment in a line: LTEA_HepaRG_TP53: Life Technologies and Expression Analysis (LTEA) Assay for Tumor Protein P53 (TP53) using HepaRG (AID 2283537). The following applies: actives raise or lower the signal; mRNA level, 48 h. An outline of the steps:
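HepaRG, 48 h exposure, top 100 uM, half-log 8-point, 0.5% DMSO vehicle, duplicates. Read: TP53 mRNA by TaqMan qRT-PCR, normalised to ACTB/GAPDH/POLR2A; bidirectional fit vs DMSO.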

Read-out in experiment [12]: UDP glucuronosyltransferase (UGT1A1), UGT1A1 (gene 54658)
The experiment in a line: LTEA_HepaRG_UGT1A1: Life Technologies and Expression Analysis (LTEA) Assay for UDP glucuronosyltransferase (UGT1A1) using HepaRG (AID 2283538). The following applies: actives raise or lower the signal; mRNA level, 48 h. The method, boiled down: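 Readout is UGT1A1 transcript level by qRT-PCR, normalized to three housekeeping genes, after 48 h chemical treatment of HepaRG cells. Concentrations ran from 100 uM down in half-log steps with 0.5% DMSO, and gain or loss relative to DMSO was fitted.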

Read-out in experiment [13]: UDP glucuronosyltransferase (UGT1A6), UGT1A6 (gene 54578)
Description: LTEA_HepaRG_UGT1A6: Life Technologies and Expression Analysis (LTEA) Assay for UDP glucuronosyltransferase (UGT1A6) using HepaRG (AID 2283539). The note with it: actives raise or lower the signal; mRNA level, 48 h. An outline of the steps: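 HepaRG, 48 h post-plating switch to serum-free induction medium; chemical 48 h, 100 uM top, half-log x8, duplicate, 0.5% DMSO. Phenobarbital 1mM induction control. UGT1A6 mRNA by TaqMan qRT-PCR; gain/loss fit vs DMSO.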

Read-out in experiment [14]: X-box binding protein 1 (XBP1), XBP1 (gene 7494)
The experiment in a line: LTEA_HepaRG_XBP1: Life Technologies and Expression Analysis (LTEA) Assay for X-box binding protein 1 (XBP1) using HepaRG (AID 2283540). The following applies: actives raise or lower the signal; mRNA level, 48 h. An outline of the steps: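 Transcript levels of XBP1, measured by qRT-PCR and normalised to three housekeeping genes, were fitted bidirectionally relative to 0.5% DMSO controls. Human HepaRG cells received eight-point half-log dilutions from 100 uM for 48 h.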

Experiment [15] is described as follows: LTEA_HepaRG_LDH_cytotoxicity: Cytotoxicity Assessment in the Life Technologies and Expression Analysis (LTEA) Assay (AID 2283563; active = hit-call score of the fitted dose curve at least 0.9, where 1 is the maximum). An outline of the steps: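 Cells were thawed and plated for 48 h. Medium was then replaced with serum-free induction medium. Chemicals (8 half-log points, maximum 100 uM, 0.5% DMSO) were added in duplicate for 48 h, after which spent medium was assayed for LDH.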

A short description of experiment [16]: ATG_XTT_Cytotoxicity: Cytotoxicity Assessment in the Attagene TRANS-FACTORIAL HepG2 Assay (AID 2283584; active = hit-call score of the fitted dose curve at least 0.9, where 1 is the maximum). An outline of the steps:
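Cells: human HepG2, transiently transfected with MRTU reporter constructs. Exposure 24 h. Readout: XTT, cell number. Baseline/neg ctrl DMSO; loss-of-signal scored.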

The nature of experiment [17]: Tanguay_ZF_120hpf_MORT_legacy: (Legacy) Oregon State University Tanguay Lab 120 Hour Post-fertilization zebrafish Assay for Mortality (AID 2283633; active = hit-call score of the fitted dose curve at least 0.9, where 1 is the maximum;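 for AC50: fitted as increase in binary mortality versus DMSO negative control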). The method, boiled down: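 5D WT zebrafish, chorion removed 4 hpf; 1 embryo/well from 6 hpf; static exposure to 120 hpf, 28C, dark, sealed. Final DMSO 0.64%. Readout: binary mortality, brightfield, 24 + 120 hpf; DMSO as negative control.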

Experiment [18] can be described thus: Tanguay_ZF_120hpf_YSE_legacy: (Legacy) Oregon State University Tanguay Lab 120 Hour Post-fertilization zebrafish Assay for Yolk Sac Edema (AID 2283634; active = hit-call score of the fitted dose curve at least 0.9, where 1 is the maximum). The method, boiled down: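 Dechorionate (pronase, 4 hpf) → place one 6 hpf embryo per well → static compound exposure, sealed and foil-covered, 28C, to 120 hpf → record yolk sac edema as present or absent. Final DMSO 0.64%.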

The nature of experiment [19]: Tanguay_ZF_120hpf_AXIS_legacy: (Legacy) Oregon State University Tanguay Lab 120 Hour Post-fertilization zebrafish Assay for Body Axis Malformation (AID 2283635; active = hit-call score of the fitted dose curve at least 0.9, where 1 is the maximum). The method, boiled down: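 Chorion is removed with pronase at 4 hpf, then single 6 hpf embryos are dosed (final DMSO 0.64%) and held statically at 28C in sealed, foil-covered plates. At 120 hpf body axis malformation is recorded as present or absent.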

Results on four molecules are retold here after PubChem BioAssay (EPA / NIEHS).

SMILES strings stand for the structures. The list shows a part of the results, in another mix than the full data. Records with an inconclusive call do not appear. The source made the active and inactive calls. Rule for the calls, unless noted: active = hit-call score of the fitted dose curve at least 0.9, where 1 is the maximum; inactive = score below 0.9.

As a reminder, the AC50 is the concentration giving half of the maximal activity seen.

For the molecule `CC(C)OP(C)(=O)OC(C)C`, the molecule was called inactive in experiment [1], in experiment [2], in experiment [3], in experiment [4], in experiment [5] and in experiment [6]. For the same molecule, the outcome in experiment [7] was “inactive”; in experiment [8] it was “inactive”; with TIMP1, TIMP1 (gene 7076) it was “inactive”; in experiment [9] it was “inactive”; in experiment [10], “inactive”; in [11], “inactive”. In addition, the outcome in experiment [12], in [13], in [14], in [15], in experiment [16] and in [17] was inactive. The outcome in experiment [18] and in experiment [19] was inactive.
For `Cc1cccc([N+](=O)[O-])c1[N+](=O)[O-]`, the outcome in experiment [1], in experiment [2], in experiment [3], in experiment [4], in experiment [5] and in experiment [6] was inactive. The outcome in [7] is “inactive”; in experiment [8], “inactive”; with TIMP1, TIMP1 (gene 7076), “inactive”; in experiment [9], “inactive”; in experiment [10], “inactive”; in experiment [11] it was “inactive”. In addition, the call in [12], in [13], in [14], in [15], in [16] and in [18] was inactive. Also, in experiment [19], the call was inactive. Also, the AC50 in experiment [17] is active: 26.5 µM.
`N#CBr`: the molecule was called inactive in experiment [16].
Regarding `Cc1ccc([N+](=O)[O-])cc1[N+](=O)[O-]`, the result in experiment [1], in experiment [2], in [3], in [4], in [5] and in experiment [6] was inactive. In addition, the outcome was “inactive” in experiment [7]; “inactive” in experiment [8]; “inactive” in the experiment with TIMP1, TIMP1 (gene 7076); “inactive” in experiment [9]; “inactive” in [10]; “inactive” in experiment [11]. For the same molecule, the call in experiment [13], in experiment [14], in experiment [15], in experiment [16], in experiment [17] and in experiment [18] was inactive. Moreover, the half-maximal activity concentration (AC50) in experiment [12] is active: 50 µM.
